Legend:
[1] = test system: KJD cells; test: Flow cytometry-based ADCC assay on KJD cells; assay type: cell-based, human; conditions: Herceptin without Dyngo4a
[2] = test system: A431 cells; test: Flow cytometry-based ADCC assay on A431 cells; assay type: cell-based, human; conditions: Herceptin without Dyngo4a

Substance: Herceptin: anti-HER2 (anti-erbb2) antibody
- Herceptin-mediated ADCC of KJD cells [1]: insensitive to Herceptin-mediated ADCC
- Herceptin-mediated ADCC of A431 cells [2]: sensitive to Herceptin-mediated ADCC

— US10253107B2, “Use of endocytosis inhibitors and antibodies for cancer therapy” (THE UNIVERSITY OF QUEENSLAND, priority 2012, dated 2019)
